In paper PMC7723054:
The other results are listed elsewhere or left out.

Experiments:
Experiment in all cases: FOREST: bead pull-down of RNA structure library v1, barcode microarray; U1A/LIN28A: 20 mM HEPES pH 7.5, 80 mM KCl, 20 mM NaCl, 10% glycerol, 2 mM DTT, 0.1 ug/uL BSA, 4 C; BG4/CIRBP/DHX36: 10 mM Tris-HCl pH 7.5, 100 mM KCl (or LiCl),; high values mean tight binding
[1] = biological target: U1A (Homo sapiens, UniProt P09012)
[2] = biological target: T1, LIN28A (human?, UniProt Q9H9Z2 1-209)
T1 sequence: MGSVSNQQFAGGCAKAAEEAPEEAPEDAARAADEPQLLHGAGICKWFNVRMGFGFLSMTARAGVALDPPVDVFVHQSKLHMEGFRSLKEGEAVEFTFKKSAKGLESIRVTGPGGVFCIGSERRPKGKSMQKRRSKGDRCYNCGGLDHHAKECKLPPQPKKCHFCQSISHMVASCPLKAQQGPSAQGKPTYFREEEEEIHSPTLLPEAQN

[3] = biological target: T2, CIRBP (Homo sapiens, UniProt Q14011 1-172)
T2 sequence: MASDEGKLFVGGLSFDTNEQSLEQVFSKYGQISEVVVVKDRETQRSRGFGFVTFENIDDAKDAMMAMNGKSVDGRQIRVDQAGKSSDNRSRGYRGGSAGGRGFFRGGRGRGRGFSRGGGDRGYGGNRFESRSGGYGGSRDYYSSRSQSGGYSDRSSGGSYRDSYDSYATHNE

[4] = biological target: T3, DHX36 (Homo sapiens, UniProt Q9H2U1 1-1008)
T3 sequence: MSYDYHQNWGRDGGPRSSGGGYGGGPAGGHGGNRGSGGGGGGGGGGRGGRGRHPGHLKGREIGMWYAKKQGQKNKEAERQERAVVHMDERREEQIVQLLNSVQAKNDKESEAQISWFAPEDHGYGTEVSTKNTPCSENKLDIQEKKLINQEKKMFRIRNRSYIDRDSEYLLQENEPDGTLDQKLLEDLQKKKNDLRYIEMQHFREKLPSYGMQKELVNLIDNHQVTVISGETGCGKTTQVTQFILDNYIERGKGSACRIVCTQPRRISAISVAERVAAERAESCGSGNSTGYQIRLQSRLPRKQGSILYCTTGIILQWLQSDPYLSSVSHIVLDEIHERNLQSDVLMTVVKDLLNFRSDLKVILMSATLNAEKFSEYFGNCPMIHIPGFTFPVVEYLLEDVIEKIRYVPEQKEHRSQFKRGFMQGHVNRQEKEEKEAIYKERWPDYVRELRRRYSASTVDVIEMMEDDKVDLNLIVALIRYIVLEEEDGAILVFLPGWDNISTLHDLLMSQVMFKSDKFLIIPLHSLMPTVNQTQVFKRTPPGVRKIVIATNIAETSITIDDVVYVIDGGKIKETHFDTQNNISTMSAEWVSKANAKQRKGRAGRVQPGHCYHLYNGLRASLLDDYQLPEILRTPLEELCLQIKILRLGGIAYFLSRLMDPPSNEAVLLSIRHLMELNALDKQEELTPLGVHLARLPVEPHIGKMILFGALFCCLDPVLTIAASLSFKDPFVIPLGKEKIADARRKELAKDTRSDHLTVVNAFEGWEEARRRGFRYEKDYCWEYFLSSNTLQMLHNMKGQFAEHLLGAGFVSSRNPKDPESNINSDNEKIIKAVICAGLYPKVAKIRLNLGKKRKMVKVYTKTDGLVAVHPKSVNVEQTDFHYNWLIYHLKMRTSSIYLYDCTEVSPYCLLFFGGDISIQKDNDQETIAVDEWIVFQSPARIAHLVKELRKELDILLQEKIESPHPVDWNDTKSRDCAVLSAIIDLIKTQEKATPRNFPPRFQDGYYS

Row | Binder | binding signal [1] | binding signal [2] | binding signal [3] | binding signal [4]
1 | hsa-mir-499b (structured_RNA) RNA: GGGAAAAUCCAAGGUCUAUGAUGUGGUCGGUGUACGAAGUUUCAGCUGUUCACGUGGAGAGGAGUUAAACAGCUGAAGCUUCGUGCAC | 0.946 z-score | 0.718 z-score | 2.25 z-score | 0.317 z-score
2 | hsa-mir-6082 (structured_RNA) RNA: GGGAACGCAGCAAUCGGAUUGCAACAUUGGUGUACGAAGUUUCAGCAUCCAGUCCACUUAAUUCUGAGAAAGUCCACAGACUGGAUCGGGUCUUGGAUUUUAGCUGGAUUCAUGCUGAAGCUUCGUGCAC | 0.943 z-score | 0.395 z-score | 0.886 z-score | 0.0614 z-score
3 | hsa-mir-1289-1 (structured_RNA) RNA: GGGACACGAAACGAUUUGUUGAACGACUGGUGUACGAAGUUUCAGCUCCACCCCCAGAGAAUCCCUAAACCGGGGGUGGAGCUGAAGCUUCGUGCAC | 0.943 z-score | 0.703 z-score | -0.676 z-score | -0.441 z-score
4 | G4_(UGGU)6 (structured_RNA) RNA: GGGACAUGGUAUAGUAGACGUUAGUAGGGGUGUACGAAGUUUCAGCUGGUUGGUUGGUUGGUUGGUUGGUGCUGAAGCUUCGUGCAC | 0.941 z-score | 0.541 z-score | 1.45 z-score | 8.05 z-score
5 | hsa-mir-4663 (structured_RNA) RNA: GGGACAGGUUGGCACACCGACUAUCACUGGUGUACGAAGUUUCAGCCAGUGGCAUCUGUCAUUGGCUGAAGCUUCGUGCAC | 0.939 z-score | -1.87 z-score | -1.17 z-score | -0.816 z-score
6 | G4_(UGGU)8 (structured_RNA) RNA: GGGAAAGACUUUGGUAGAACGAUUAUCCGGUGUACGAAGUUUCAGCUGGUUGGUUGGUUGGUUGGUUGGUUGGUUGGUGCUGAAGCUUCGUGCAC | 0.939 z-score | -0.29 z-score | -0.0978 z-score | 8.36 z-score
7 | hsa-mir-4536-2 (structured_RNA) RNA: GGGACGAAGCGAGAUAAGUACGACUCUAGGUGUACGAAGUUUCAGCACGAUAUAGGUAUGUAUGUAUGUAUGUAUAAAAGCAGGGCAGUAUAUAUAUCGUGCUGAAGCUUCGUGCAC | 2.44 z-score | 1.18 z-score | 0.831 z-score | 0.616 z-score
8 | hsa-mir-6801 (structured_RNA) RNA: GGGACAUAUAUGGGCUCGGCCACCCUAAGGUGUACGAAGUUUCAGCAAAUGAGAGUUAGCCAGGAGCUUUGCAUACUCAGCUGAAGCUUCGUGCAC | 0.938 z-score | 0.456 z-score | 0.677 z-score | -0.738 z-score
9 | hsa-mir-624 (structured_RNA) RNA: GGGAGGCAGUAGUGUAUACCCAGUGAGGGGUGUACGAAGUUUCAGCUGUGUUCAGUGGAACCAAGGUAAACACAGCUGAAGCUUCGUGCAC | 0.936 z-score | 0.65 z-score | -0.0341 z-score | 0.365 z-score
10 | hsa-mir-130b (structured_RNA) RNA: GGGAAUAUGAGGAUCACGCGCCGCAAAAGGUGUACGAAGUUUCAGCACUACUAUAGGCCGCUGGGAAGCAGUGCUGAAGCUUCGUGCAC | 0.932 z-score | -0.129 z-score | -1.07 z-score | 0.341 z-score
11 | hsa-mir-518e (structured_RNA) RNA: GGGAAUUGGGAAGUGGGACAUAGGACGCGGUGUACGAAGUUUCAGCCUUUCUGUUGGCUAAAAGAAAAGAAAGGCUGAAGCUUCGUGCAC | 0.927 z-score | -0.207 z-score | -0.329 z-score | -0.821 z-score
12 | hsa-mir-1207 (structured_RNA) RNA: GGGAAUAUUGGAAACUGGGGUUCCCCUAGGUGUACGAAGUUUCAGCGGGGCUGGCUGGGUCUGGUAGUGGGCAUCAGCUGGCCCUGCUGAAGCUUCGUGCAC | 0.926 z-score | 0.166 z-score | -0.157 z-score | 0.78 z-score
13 | hsa-mir-548h-4 (structured_RNA) RNA: GGGACAAACUUGCCAGGGUGUUCUGACCGGUGUACGAAGUUUCAGCUUUGUCAUUACUUUAAUUACUUUACGUUUCAUUAAUGACAAAGCUGAAGCUUCGUGCAC | 0.918 z-score | -1.04 z-score | 0.245 z-score | -0.614 z-score
14 | hsa-mir-548j (structured_RNA) RNA: GGGAGACGGAAGACCUUUGCUACGGGUAGGUGUACGAAGUUUCAGCUUUGGUAUUACUUUCAGUGGCAAAGCUGAAGCUUCGUGCAC | 0.907 z-score | 0.179 z-score | 0.000803 z-score | -0.155 z-score
15 | hsa-mir-562 (structured_RNA) RNA: GGGAAGCAUGGAUCUAUAAAAUGGCUCCGGUGUACGAAGUUUCAGCCUUUUAGAGUAAUUGUGAAACUGUUUUUCAAAGGCUGAAGCUUCGUGCAC | 0.901 z-score | -0.411 z-score | 0.0671 z-score | -0.424 z-score
16 | hsa-mir-195 (structured_RNA) RNA: GGGACAAUCCGCGAGUCGAAUAAAAGUGGGUGUACGAAGUUUCAGCUUGGCACAGGGAAGCGAGUCUGCCAAGCUGAAGCUUCGUGCAC | 0.899 z-score | 0.397 z-score | 1.19 z-score | -0.311 z-score
17 | G4_(UGGGU)6 (structured_RNA) RNA: GGGAGAAUCCCGCGGAGGCUGCUAUAAAGGUGUACGAAGUUUCAGCUGGGUUGGGUUGGGUUGGGUUGGGUUGGGUGCUGAAGCUUCGUGCAC | 0.898 z-score | 0.961 z-score | 5.02 z-score | 6.65 z-score
18 | PARIS_ID9 (structured_RNA) RNA: GGGAGAACUUCGCACCGCAUGAAGUCCUGGUGUACGAAGUUUCAGCAGGACAAUACAGACAGUAACUCCUAUGGUUACAAUGAACACUCCUGCUGAAGCUUCGUGCAC | 2.4 z-score | -0.149 z-score | -0.37 z-score | 0.426 z-score
19 | hsa-mir-3655 (structured_RNA) RNA: GGGACCUAUACGUCGAUGGUCCUUGAACGGUGUACGAAGUUUCAGCUGCUGUUGGAGACUCGAUUGUUGGUGACAGCGAAAGAACGAUAACAAAGCUGAAGCUUCGUGCAC | 0.896 z-score | 0.871 z-score | -0.913 z-score | -0.921 z-score
20 | hsa-mir-532 (structured_RNA) RNA: GGGAAAAGCGACGGAGCUUGUAUAUCCCGGUGUACGAAGUUUCAGCGACCGUUGGCAUCUUAAUUACCCUCGCUGAAGCUUCGUGCAC | 0.895 z-score | 0.737 z-score | 0.831 z-score | -0.0916 z-score
21 | hsa-mir-4540 (structured_RNA) RNA: GGGAAUUAGUUGAGGUCGGACUCUCGACGGUGUACGAAGUUUCAGCCUUGGCACCUUUGGCCUUAGGCUGAAGCUUCGUGCAC | 0.891 z-score | -0.00508 z-score | 0.0438 z-score | 0.745 z-score
22 | hsa-mir-8081 (structured_RNA) RNA: GGGAAGCUAACGGGACAUACCAGAGUAAGGUGUACGAAGUUUCAGCCUAUGGCCCCCCUCCUCUCUGAAAGCAAGGCCACUUGGCUGAAGCUUCGUGCAC | 0.891 z-score | 0.39 z-score | 0.0446 z-score | 1.36 z-score
